Test system: I308A mutant GAFb domain of CyaB2
Test: Cyclic nucleotide binding assay, I308A mutant GAFb
Design: species or system Anabaena sp. PCC 7120
Conditions: I308A mutant vs wild type; ∼1 nM 3H-cAMP

In the case of 2,8 [^3H]-cAMP, the “reduction in binding of 3H-cAMP” value is reported as 50%.

From paper PMC4411481, “Cyclic nucleotide binding and structural changes in the isolated GAF domain of Anabaena adenylyl cyclase, CyaB2” (PeerJ, 2015)
